Reference: patent US11400035B2, “Preservative mixture” (Symrise AG, priority 2016, dated 2022)

Assay: General solubility of 4-isopropyl-3-methyl-phenol in different hydrophilic solvents, storage at 5° C. Further: key: (++++) fully dissolved; (++) dissolved, but moderate recrystallisation after 48 h at 5° C; (+) dissolved, but strong recrystallisation after 48 h at 5° C; (#) not dissolved.
Format: physicochemical
Settings: stored at 5° C.

Substance: Hexylene glycol
- Solubility of 4-isopropyl-3-methyl-phenol in different hydrophilic solvents (Concentration 36 % b.w.): ++
- Solubility of 4-isopropyl-3-methyl-phenol in different hydrophilic solvents (Concentration 40 % b.w.): +
- Solubility of 4-isopropyl-3-methyl-phenol in different hydrophilic solvents (Concentration 46 % b.w.): +
- Solubility of 4-isopropyl-3-methyl-phenol in different hydrophilic solvents (Concentration 47 % b.w.): +
- Solubility of 4-isopropyl-3-methyl-phenol in different hydrophilic solvents (Concentration 50 % b.w.): +
